Measured affinities in a library of Ab-14 light chain variants

Data: MIT Lincoln Laboratory AlphaSeq set, Engelhart et al. 2022, doi:10.1038/s41597-022-01779-4, as distributed in FLAb.

Target: peptide PDVDLGDISGINAS, taken from heptad repeat 2 (HR2) of SARS-CoV-2 spike.

The variants keep the heavy chain, the linker and the frameworks of Ab-14 (scFv order VH, three GGGGS repeats, VL).
VH: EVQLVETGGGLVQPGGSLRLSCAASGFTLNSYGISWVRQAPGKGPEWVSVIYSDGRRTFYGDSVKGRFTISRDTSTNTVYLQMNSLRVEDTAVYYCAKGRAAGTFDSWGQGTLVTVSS
VL: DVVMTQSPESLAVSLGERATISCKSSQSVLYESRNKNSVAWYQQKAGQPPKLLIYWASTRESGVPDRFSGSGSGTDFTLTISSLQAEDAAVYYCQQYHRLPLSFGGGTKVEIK

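The parent was found by panning a naive human phage display library on the peptide. Variants in AAYL50 differ from the parent at up to three CDR positions; double and triple changes were sampled at random. In AlphaSeq, yeast of one mating type display the scFv and yeast of the other type display the target. The frequency of each diploid, read from paired DNA barcodes, reflects how well the two displayed proteins bind. Each replicate has its own calibration line, from reference interactions of the BCL2 family. The assay was run in three technical replicates.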

Substitutions are numbered in sequence along the VL above, starting at 1 (not Kabat). Scale: log10 of Kd in nM, estimated from mating counts; low values are strong binders. The mean shown is taken over the replicates in which the pair was detected. A pair that was not seen in that replicate is written "nd"; this usually means weak binding, but a binder can also be missed.

| # | changes | log10 Kd (nM) by replicate | mean, log10 nM | empty controls |
|---|---|---|---|---|
| 1 | S28W E32L S33F | nd / nd / nd | nd | 2 of 9 (4.16) |
| 2 | E61V S103Y | 1.37 / 1.36 / 1.71 | 1.48 | 1 of 9 (4.14) |
| 3 | S25D S58P Y97L | nd / 4.09 / 5.17 | 4.63 | 3 of 9 (3.49) |
| 4 | S28Q V39E R60K | 1.31 / 1.46 / 1.03 | 1.27 | 0 of 9 |
| 5 | S28C E32M R60Q | nd / nd / 3.61 | 3.61 | 0 of 9 |
| 6 | Y31I R34I | 0.64 / 0.85 / 0.68 | 0.72 | 1 of 9 (3.61) |
| 7 | S28Q T59N Q96I | 4.36 / 3.35 / 3.79 | 3.83 | 4 of 9 (4.84) |
| 8 | S25R R34V S58F | nd / nd / nd | nd | 0 of 9 |
| 9 | Q27I L30P | 0.91 / 1.08 / 0.98 | 0.99 | 5 of 9 (4.75) |
| 10 | N37K A40P W56M | nd / 3.72 / 6.29 | 5.00 | 4 of 9 (5.16) |
| 11 | Q27P S38H Q96S | 2.12 / 2.12 / 2.45 | 2.23 | 1 of 9 (4.72) |
| 12 | K24Y A40P S58R | nd / nd / nd | nd | 2 of 9 (3.55) |
| 13 | Q96I Y97T S103M | 3.11 / 3.47 / 4.90 | 3.83 | 3 of 9 (4.61) |
| 14 | E32G V39H W56E | 1.11 / 1.16 / 1.16 | 1.14 | 2 of 9 (4.08) |
| 15 | V39F S58F T59L | 4.00 / nd / 5.78 | 4.89 | 1 of 9 (4.97) |
| 16 | S33P N37R S58L | nd / nd / 4.92 | 4.92 | 0 of 9 |
| 17 | Y31S R99G S103Y | 3.04 / nd / nd | 3.04 | 0 of 9 |
| 18 | S38R A40W Y97Q | nd / nd / nd | nd | 3 of 9 (3.92) |
| 19 | H98K R99Y P101V | nd / 2.30 / nd | 2.30 | 0 of 9 |
| 20 | Y31L S38K R60C | nd / nd / nd | nd | 1 of 9 (4.55) |
| 21 | E32D S38F Q95W | nd / nd / nd | nd | 0 of 9 |
| 22 | Y31L E32A S38T | nd / nd / nd | nd | 0 of 9 |
| 23 | R34S S38A L100N | nd / nd / nd | nd | 0 of 9 |
| 24 | S26P Q27Y T59L | 1.32 / 1.41 / 1.43 | 1.39 | 4 of 9 (4.36) |
| 25 | K36V T59R L102M | 4.42 / nd / 5.14 | 4.78 | 4 of 9 (4.64) |
| 26 | K24Q S25C L100S | nd / nd / nd | nd | 0 of 9 |
| 27 | S33K R60C P101Y | nd / 4.79 / nd | 4.79 | 3 of 9 (4.19) |
| 28 | V39A L100K P101V | nd / nd / nd | nd | 0 of 9 |
| 29 | S28Q N35M A40I | nd / nd / nd | nd | 0 of 9 |
| 30 | H98G | 1.64 / 1.70 / 1.72 | 1.69 | 3 of 9 (4.69) |

Nonspecific signal, from three strains lacking the peptide, appeared in 18% of pairings of library AAYL50, centred on 4.19 (5% of these signals below 2.99); values are not corrected for it. The control count says in how many pairings with the empty strains this scFv gave a signal, with their mean in brackets.